Values of other authors as cited in patent US12076312B2, “Repurposing anti-androgen therapy for COVID-19 and immunotherapy” (Wisconsin Alumni Research Foundation, priority 2021, dated 2024).

Test system: ligand binding domain of the AR in LNCaP cells
Conditions: cited from earlier work

## CNC(=O)c1ccc(N2C(=S)N(c3cnc(C#N)c(C(F)(F)F)c3)C(=O)C23CCC3)cc1F [Apalutamide]
  greater affinity for ligand binding domain of the AR compared with bicalutamide: 7- to 10 fold
